Laboratory results published in ChEMBL document CHEMBL4371059 (J Med Chem, 2019).

Protein sequences, listed by entry. Tags and fused reporters are not part of them. Lines headed by an entry give the natural chain unless they say otherwise; changes in a name come on top.
UniProt P41145: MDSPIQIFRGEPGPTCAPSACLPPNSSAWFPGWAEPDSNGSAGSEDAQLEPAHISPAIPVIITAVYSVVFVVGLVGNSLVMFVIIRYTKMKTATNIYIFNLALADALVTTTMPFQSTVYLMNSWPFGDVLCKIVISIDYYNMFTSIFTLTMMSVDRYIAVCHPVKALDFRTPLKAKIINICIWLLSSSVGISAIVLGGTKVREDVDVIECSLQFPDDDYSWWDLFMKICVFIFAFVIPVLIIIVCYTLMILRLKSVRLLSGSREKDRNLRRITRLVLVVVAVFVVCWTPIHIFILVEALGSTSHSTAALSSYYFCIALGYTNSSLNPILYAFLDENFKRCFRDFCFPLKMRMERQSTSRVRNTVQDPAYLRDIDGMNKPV
UniProt Q60492, whole entry, looked up: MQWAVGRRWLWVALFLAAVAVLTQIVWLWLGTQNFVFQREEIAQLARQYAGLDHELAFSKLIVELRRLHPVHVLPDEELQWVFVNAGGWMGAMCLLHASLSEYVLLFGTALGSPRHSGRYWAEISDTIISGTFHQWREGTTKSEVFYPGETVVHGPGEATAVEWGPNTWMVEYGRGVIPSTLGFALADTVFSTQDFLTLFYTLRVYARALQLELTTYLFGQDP
UniProt P33533, whole entry, looked up: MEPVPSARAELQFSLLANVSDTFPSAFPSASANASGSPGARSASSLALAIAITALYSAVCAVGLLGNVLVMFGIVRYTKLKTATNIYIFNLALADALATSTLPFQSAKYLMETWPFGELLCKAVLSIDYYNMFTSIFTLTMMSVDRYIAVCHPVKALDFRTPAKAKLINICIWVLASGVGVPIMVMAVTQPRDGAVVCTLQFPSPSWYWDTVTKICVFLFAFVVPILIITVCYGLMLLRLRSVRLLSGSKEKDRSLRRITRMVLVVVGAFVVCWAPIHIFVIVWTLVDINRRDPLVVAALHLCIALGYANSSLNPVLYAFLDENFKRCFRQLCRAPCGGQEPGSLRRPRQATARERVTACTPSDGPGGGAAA

Assays:
[1] = target: Kappa-type opioid receptor (Homo sapiens) (UniProt P41145); assay: Agonist activity at human KOR expressed in HEK293T cells assessed as inhibition of Galphai-mediated cAMP accumulation after 15 mins by microbeta counting assay relative to salvinorin A
[2] = target: Kappa-type opioid receptor (Homo sapiens) (UniProt P41145); assay: Agonist activity at Tango-KOR (unknown origin) expressed in HTLA cells harboring TEV-fused-beta-arrestin 2 assessed as increase in beta arrestin 2 recruitment after overnight incubation by BrightGlo reagent based assay relative to salvinorin A
T-cell [3] = assay: Anti-inflammatory activity in PMA/ionomycin-stimulated OPRK deficient mouse T cells assessed as reduction in IFNgamma production at 5 ug/ml treated for 48 hrs starting from 12 hrs post PMA/ionomycin stimulation by flow cytometry
[4] = Selectivity ratio of Ki for DOR in Sprague-Dawley rat brain membranes to Ki for KOR in guinea pig brain membranes
Cavia porcellus [5] = species: Cavia porcellus; assay: Selectivity ratio of Ki for MOR in guinea pig brain membranes to Ki for KOR in guinea pig brain membranes
[6] = target: Sigma non-opioid intracellular receptor 1 (Cavia porcellus) (UniProt Q60492); assay: Displacement of [3H]-(+)-pentazocine from sigma1 receptor in guinea pig brain membranes at 1 uM after 120 mins by scintillation counting method relative to control
Dendritic cell = assay: Anti-inflammatory activity in PMA/ionomycin-stimulated OPRK deficient mouse bone marrow derived dendritic cells assessed as reduction in IFNgamma production at 5 ug/ml treated for 48 hrs starting from 12 hrs post PMA/ionomycin stimulation by flow cytometry
Cavia porcellus [7] = species: Cavia porcellus; assay: Selectivity ratio of Ki for sigma1 receptor in guinea pig brain membranes to Ki for KOR in guinea pig brain membranes
[8] = Selectivity ratio of Ki for sigma2 receptor in rat liver membranes to Ki for KOR in guinea pig brain membranes
[9] = target: Delta-type opioid receptor (Rattus norvegicus) (UniProt P33533); assay: Displacement of [3H]DPDPE from DOR in Sprague-Dawley rat brain membranes at 1 uM after 120 mins by scintillation counting method relative to control
T-cell [10] = assay: Immunomodulatory activity in PMA/ionomycin-stimulated OPRK deficient mouse T cells assessed as increase in IL-10 production at 5 ug/ml treated for 48 hrs starting from 12 hrs post PMA/ionomycin stimulation
[11] = Ratio of Ki for displacement of [3H]diprenorphine from human KOR expressed in HEK293T cell membranes to Ki for displacement of [3H]U-69,593 from KOR in guinea pig brain membranes
[12] = target: T1, Sigma intracellular receptor 2 (Rattus norvegicus) (UniProt Q5U3Y7); assay: Displacement of [3H]DTG from sigma2 receptor in rat liver membranes at 1 uM after 120 mins by scintillation counting method relative to control; assay type: cell membranes
T1 sequence (whole entry): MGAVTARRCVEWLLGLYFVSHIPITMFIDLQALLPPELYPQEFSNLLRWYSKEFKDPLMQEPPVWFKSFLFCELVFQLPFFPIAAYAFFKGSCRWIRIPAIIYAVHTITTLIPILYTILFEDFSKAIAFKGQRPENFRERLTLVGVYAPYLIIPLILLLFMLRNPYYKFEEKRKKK

Row | SMILES | Emax [1] | Emax [2] | Activity (T-cell [3]) | Ratio Ki [4] | Ratio Ki (Cavia porcellus [5]) | inhibition [6] | Activity (Dendritic cell) | Ratio Ki (Cavia porcellus [7]) | Ratio Ki [8] | inhibition [9] | Activity (T-cell [10]) | Ratio Ki [11] | inhibition [12]
1 | O=C(Cc1ccc(Cl)c(Cl)c1)N1CCN(Cc2cn(CCF)nn2)[C@H]2CCC[C@H](N3CCCC3)[C@H]21 | 103% | 86% | inactive | 74 | 100 | 2% | inactive | > 180 | > 180 | > 50% | inactive | 3 to 9 | –
2 | O=C(Cc1ccc(Cl)c(Cl)c1)N1CCN(C(=O)Cn2cc(CCCF)nn2)[C@H]2CCC[C@H](N3CCCC3)[C@H]21 | – | – | – | 130 | > 285 | 0% | – | > 180 | > 180 | > 50% | – | – | 0%
3 | CCN1CCN(C(=O)Cc2ccc(Cl)c(Cl)c2)[C@H]2[C@@H]1CCC[C@@H]2N1CCCC1 | 103% | 99% | – | – | – | 11% | – | – | – | > 50% | – | 3 to 9 | –
4 | CCCN1CCN(C(=O)Cc2ccc(Cl)c(Cl)c2)[C@@H]2[C@@H](N3CCCC3)CCC[C@@H]21 (racemic) | 102% | 108% | – | – | – | > 50% | – | – | – | > 50% | – | 3 to 9 | > 50%
5 | O=C(Cc1ccc(Cl)c(Cl)c1)N1CCN(CCF)[C@H]2CCC[C@H](N3CCCC3)[C@H]21 | – | – | – | > 450 | – | – | – | > 180 | > 180 | – | – | – | –
6 | CCCCN1CCN(C(=O)Cc2ccc(Cl)c(Cl)c2)[C@@H]2[C@@H](N3CCCC3)CCC[C@@H]21 (racemic) | 102% | 106% | – | – | – | > 50% | – | 135 | 230 | > 50% | – | 3 to 9 | > 50%
7 | CC(C)(C)OC(=O)N1CCN(C(=O)Cc2ccc(Cl)c(Cl)c2)[C@@H]2[C@@H](N3CCCC3)CCC[C@@H]21 | 94% | 102% | – | – | – | 12% | – | – | – | > 50% | – | 3 to 9 | –
8 | O=C(Cc1ccc(Cl)c(Cl)c1)N1CCN[C@H]2CCC[C@H](N3CCCC3)[C@H]21 | 103% | 93% | – | 380 | > 1800 | 0% | – | > 180 | > 180 | > 50% | – | 3 to 9 | –
9 | CN1CCN(C(=O)Cc2ccc(Cl)c(Cl)c2)[C@H]2[C@@H]1CCC[C@@H]2N1CCCC1 | 102% | 101% | – | – | – | 0% | – | – | – | > 50% | – | 3 to 9 | –
10 | O=C(Cc1ccc(Cl)c(Cl)c1)N1CCN(C(=O)COCCF)[C@H]2CCC[C@H](N3CCCC3)[C@H]21 | – | – | – | – | – | – | – | – | – | – | – | 3 to 9 | –

Active and inactive are the calls of the source. The calls are words filed in the database; no cut-off is given here.
